Results published in patent publication US10280188B2, “Fluorine-containing bisphosphonic acid derivative and use thereof” (NAGASAKI UNIVERSITY, priority 2015, dated 2019).

Tested on: human monocyte tumor cell line P31/FUJ
Experiment: Specific cytotoxicity of Vδ2 positive γδ T cells on compound-treated P31/FUJ (time-resolved fluorescence)
Details: γδ T cells from normal adult (3), E/T 0.625:1-40:1, single concentration tested

## O=P(O)(O)C(F)(Cn1ccnc1)P(=O)(O)O [ZOLF, 1-fluoro-(2-imidazoyl-1-ethylidene)-1,1-bisphosphonic acid]
  concentration at which sensitivity to cytotoxicity activity of Vδ2 positive γδ T cells is promoted: at least 500 μM
